Reference: PubChem BioAssay (NCI)
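96-well plates; 48 h exposure; 5 concentrations. Endpoints by linear interpolation between flanking doses. Not reached: highest tested concentration assigned. Here, GI50 denotes the concentration required for 50% inhibition of growth. TGI denotes the concentration required for complete inhibition of growth.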

Tests used:
Experiment in all cases: growth of human tumour cells (NCI), 48 h
[1] = tested on: DLD-1 colon
[2] = tested on: DMS 114 small cell lung
[3] = tested on: HOP-18 NSCLC
[4] = tested on: LXFL 529 NSCLC
[5] = tested on: M19-MEL melanoma
[6] = tested on: SNB-78 CNS

Q: Which GI50 [1] does the source give for Nc1ccccc1Nc1ccccc1C(=O)[O-].Nc1ccccc1Nc1ccccc1C(=O)[O-].[Ni+2] here?
A: > 100 µM

Q: And the TGI [1]?
A: > 100 µM

Q: What about the GI50 [2] of the same molecule?
A: > 100 µM

Q: What about the TGI [2] of the same molecule?
A: > 100 µM

Q: What about the GI50 [3] of the same molecule?
A: 22.9 µM

Q: And the TGI [3]?
A: > 100 µM

Q: What about the GI50 [4] of the same molecule?
A: 44.3 µM

Q: What about the TGI [4] of the same molecule?
A: > 100 µM

Q: What about the GI50 [5] of the same molecule?
A: > 100 µM

Q: And the TGI [5]?
A: > 100 µM

Q: What about the GI50 [6] of the same molecule?
A: > 100 µM

Q: What about the TGI [6] of the same molecule?
A: > 100 µM
